Measured affinities in a library of Ab-14 heavy chain variants

Target peptide (SARS-CoV-2 spike, HR2 region): PDVDLGDISGINAS

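The parent was found by panning a naive human phage display library on the peptide. The library (AAYL49) carries one to three amino acid substitutions per variant, with no insertions or deletions. The scFvs were displayed on barcoded MATa yeast, the peptide on MATalpha yeast. The frequency of each diploid, read from paired DNA barcodes, reflects how well the two displayed proteins bind. Each replicate has its own calibration line, from reference interactions of the BCL2 family. The assay was run in three technical replicates.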

Parent: Ab-14, a human scFv built as VH, the linker GGGGSGGGGSGGGGS, VL. Only the CDRs of the heavy chain vary.
VH: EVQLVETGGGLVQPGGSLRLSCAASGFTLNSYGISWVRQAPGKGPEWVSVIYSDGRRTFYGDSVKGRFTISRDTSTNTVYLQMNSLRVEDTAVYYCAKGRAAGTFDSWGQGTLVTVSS
VL: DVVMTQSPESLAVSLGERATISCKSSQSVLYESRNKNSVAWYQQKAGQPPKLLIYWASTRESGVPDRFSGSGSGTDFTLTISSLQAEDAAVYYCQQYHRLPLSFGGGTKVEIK

Each variant is given by its three heavy chain CDRs, as the data file delimits them; those of the parent are GFTLNSYGIS, VIYSDGRRTFYGDSVK, GRAAGTFDS.
The read-out is the apparent dissociation constant on a log10 scale (nM): the lower, the stronger.
A mean of the replicates is given; it leaves out those without a signal.
Where no diploid with the target was found in that replicate, the entry reads "ND": below detection, most likely a poor binder, though not proof of it.

CDR-H1,CDR-H2,CDR-H3,log10 Kd (nM) by replicate,"mean, log10 nM",control signals
GFTLNSYGIS,VIYSDGRRTFYGDSVS,GRAHGTFSS,1.70 1.92 2.07,1.90,0/9
GFRLNSYDIS,VIYSDGRRTMYGDSVK,GRAAGTFDS,ND 3.85 ND,3.85,0/9
GFTLNSYGIQ,VIYSDGIRTFYWDSVK,GRAAGTFDS,ND ND ND,ND,0/9
GFTENSYGIS,VIYSDGRRNFYGDSVK,GRTAGTFDS,ND ND ND,ND,0/9
WFTLNSYGIS,VIYSDGRRTLYGASVK,GRAAGTFDS,3.79 4.88 ND,4.34,2/9 (4.96)
GFTLNSYGIS,VIYSDGRRAIYGDSVK,GRAAGTFHS,2.82 2.63 4.17,3.21,2/9 (3.83)
GFTLNKYGIS,VIYSDGRRTFYGDSVQ,GGAAGTFDS,1.42 2.27 1.60,1.77,0/9
GFTLNSYGIS,VINSDGRFTFYGDSVG,GRAAGTFDS,ND ND ND,ND,1/9 (3.07)
GFVLNSYGIS,VINSDGRRTFYGDSDK,GRAAGTFDS,ND ND ND,ND,2/9 (4.04)
GFTLNSYGIS,VIHSDGRRHFYGDSVK,GRAAGTFDI,ND ND ND,ND,0/9
GFTLNFYGQS,VIYSDNRRTFYGDSVK,GRAAGTFDS,ND 1.95 ND,1.95,0/9
GFTLNSYGIS,FIYSDGRRTFYGDSAK,GRAAGTYDS,ND ND ND,ND,0/9
GFTLNSYGIS,VIYSDGRRTVYGDSVK,ARAAYTFDS,1.77 2.14 2.31,2.07,2/9 (3.88)
IFTLNSYGIS,VIMSDGRRTFYGDSVE,GRAAGTFDS,ND ND ND,ND,0/9
GFTLNSYFIS,KIDSDGRRTFYGDSVK,GRAAGTFDS,ND ND ND,ND,0/9
GFTLNSYGIS,VNYSDGRRTFYGDSVR,GRAAGTFDS,ND 4.10 ND,4.10,3/9 (4.20)
GFTLNSYGIS,VIYSDLRRTFYGDSVK,GRATGTFDS,ND 4.97 ND,4.97,4/9 (3.52)
GFTLNSYGIS,VIYSDGRRTFYGPSVK,GRPAGTFDS,ND ND ND,ND,0/9
GFTLNSYGIS,VIYFDGRRTFYGDSVK,GRAAGTFDS,1.90 2.25 2.11,2.09,2/9 (4.31)
GFTLNSYGIS,GIYSDGRRTFYGDSVN,GRAAGTKDS,ND ND ND,ND,5/9 (4.44)
GFTLNSYGIS,VIYSDGRRTFYGDSRK,GRAAWTFDS,ND 4.01 ND,4.01,2/9 (4.96)
GFTLNSYYIS,VIYSDGRRTFYGDSVK,LRAAGTFDD,4.25 5.15 ND,4.70,3/9 (4.27)
GFTLNSHGIS,VIYSDGRRTFYGDSVK,GRAAGTFDS,1.92 2.03 2.17,2.04,4/9 (4.99)
GTTLNSYGIS,VIYSDGCRTFYGDSVK,GRAAGTFDN,2.55 2.23 ND,2.39,0/9
GFPQNSYGIS,VIYFDGRRTFYGDSVK,GRAAGTFDS,ND 4.13 ND,4.13,1/9 (4.42)
GFTLNSYGIS,VDYSDGRRTFYGDSVK,GRAKGPFDS,2.51 ND ND,2.51,2/9 (3.08)
GMTLNSYGIS,VIYSDGPRTFYGDSVK,GRAMGTFDS,ND ND ND,ND,0/9
GFELNSYGIS,VIYSDGRRTFYGDSVK,GCAAGTFDE,3.54 2.81 2.81,3.06,0/9
GWTLNSYGIS,VIYSDGRRTFYGDSVF,GRAIGTFDS,ND ND ND,ND,1/9 (2.89)
GFTLNSYGIS,VIYSDGRRTFCGDSVK,GRAAGTFDY,ND ND ND,ND,0/9
GFTLNSYGIS,VIYTDPRRTFYGDSVK,GRAANTFDS,ND ND ND,ND,0/9
GVTLNSYHIS,VIYSDGRRTFYGDSVK,GPAAGTFDS,4.52 5.02 3.84,4.46,1/9 (3.43)
GFTLWSYCIS,VIYQDGRRTFYGDSVK,GRAAGTFDS,ND ND 4.21,4.21,3/9 (4.16)
AFTLNSYGIS,VIYSLGRRTFYGDLVK,GRAAGTFDS,ND ND 6.22,6.22,1/9 (4.94)
GFTLNSYGIS,VIYSDGRRTFPGDSVK,QRAAGTWDS,4.52 ND 5.95,5.24,1/9 (4.18)
GFTLNSYGIS,VIYSDGRRTFYGDSVK,GRGAGTFDS,3.47 ND 2.28,2.87,0/9
GFTLNSWIIS,VIYSDGRRTFYGSSVK,GRAAGTFDS,ND ND ND,ND,0/9
GFTNNSYGIN,EIYSDGRRTFYGDSVK,GRAAGTFDS,ND ND ND,ND,0/9
MFTLNSYGIS,VIYSDGRRQFYQDSVK,GRAAGTFDS,ND ND ND,ND,0/9
GFTLNMHGIS,VIYSDGRRTFYGDSVK,GRAAETFDS,ND ND ND,ND,0/9
GFTLNSYGLS,VIYSDGRRTFYGRSVK,GRAAGTFDS,ND ND 5.15,5.15,2/9 (3.00)
GFTLNSYGIS,YIYSDGRRTFYKDSVK,TRAAGTFDS,ND 3.84 ND,3.84,3/9 (4.15)
GFTLNSRGIS,VSYSDGRRTFYVDSVK,GRAAGTFDS,ND ND ND,ND,0/9

A selection of 3 entries from above:

CDR-H1,CDR-H2,CDR-H3,log10 Kd (nM) by replicate,"mean, log10 nM",control signals
GFTLNSYGIS,VIYSDGRRAIYGDSVK,GRAAGTFHS,2.82 2.63 4.17,3.21,2/9 (3.83)
GFTLNSYGIS,VIYSDGRRTFYGDSRK,GRAAWTFDS,ND 4.01 ND,4.01,2/9 (4.96)
GFTLNSYGIQ,VIYSDGIRTFYWDSVK,GRAAGTFDS,ND ND ND,ND,0/9

Three control strains display no target. For library AAYL49, 15% of the pairings with them gave a signal, with a median of 4.06 and one signal in twenty below 2.83, so weak values seen in few replicates may be background. The control count says in how many pairings with the empty strains this scFv gave a signal, with their mean in brackets.
In this assay the parent's reference entry averaged 0.65; its copy inside this library read 4.11 (one replicate of three).

Values reported by Engelhart et al. 2022, doi:10.1038/s41597-022-01779-4 (FLAb copy).